Biological target: T1, Asparagine synthetase [glutamine-hydrolyzing] (Rattus norvegicus) (UniProt P49088)
T1 sequence (whole entry): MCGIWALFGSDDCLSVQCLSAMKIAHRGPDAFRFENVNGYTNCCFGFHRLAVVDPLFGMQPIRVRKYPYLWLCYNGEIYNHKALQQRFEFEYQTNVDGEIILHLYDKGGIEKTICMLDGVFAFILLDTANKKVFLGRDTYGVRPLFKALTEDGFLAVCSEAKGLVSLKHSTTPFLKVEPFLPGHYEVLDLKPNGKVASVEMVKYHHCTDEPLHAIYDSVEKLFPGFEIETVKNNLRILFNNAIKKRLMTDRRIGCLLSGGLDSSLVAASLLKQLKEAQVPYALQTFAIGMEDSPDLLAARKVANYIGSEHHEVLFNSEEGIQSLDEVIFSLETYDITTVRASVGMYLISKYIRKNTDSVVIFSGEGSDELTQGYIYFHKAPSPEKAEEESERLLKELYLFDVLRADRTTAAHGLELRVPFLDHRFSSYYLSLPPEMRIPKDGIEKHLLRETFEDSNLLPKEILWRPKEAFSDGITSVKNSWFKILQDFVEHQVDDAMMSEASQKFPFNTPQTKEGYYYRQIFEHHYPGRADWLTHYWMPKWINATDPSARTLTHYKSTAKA
Test: Inhibition of asparagine synthetase isolated from rat bearing Novikoff hepatoma cells using [14C]-L-aspartic acid as substrate at 2 mM incubated 15 mins prior to substrate addition measured after 30 mins
Summary of the method: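 ASase partially purified from excised rat Novikoff hepatoma (specific activity 0.51 μmol asparagine/mg protein/30 min). Enzyme and inhibitor were preincubated with 100 μmol Tris at pH 8.0 for 15 min at 37 °C. L-glutamine (20.0 μmol), L-aspartic acid (2.0 μmol) and L-aspartic acid-¹⁴C (2×10⁶ dpm) were then added and incubated 30 min at 37 °C. Isolated L-asparagine-¹⁴C was counted by scintillation. Percent inhibition came from duplicates on three separate days with fresh inhibitor solutions.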

## N[C@@H](CC(=O)NCc1ccc(S(=O)(=O)F)cc1)C(=O)O
  inhibition: 33.7%

Source: ChEMBL document CHEMBL3243960
